The values that follow are results of earlier work, collected in patent US8889143B2, “Ii-key/HER-2/neu hybrid cancer vaccine” (Antigen Express, Inc., priority 2006, dated 2014).

The conditions of this data set: cited from earlier work.
The mark [1] stands for this setting: Her-2/neu+ breast cancer patients.

Take “E75: immunogenic peptide of Her-2/neu used in clinical trials as vaccine”: under setting [1], the Safety in patients result is “safe in patients” and the “Stimulation of antigen specific immunity” value is “effective in stimulating antigen specific immunity”. In addition, the Clinical benefit entry (breast cancer patients) was “clinical benefit in preventing recurrence of breast cancer”.
